SMILES strings stand for the structures.

The assay in a line: Selectivity ratio of IC50 for PI3Kalpha to IC50 for rat mTOR.
With `C[C@@H]1COCCN1c1nc(-c2ccc(NC(=O)Nc3cccnc3)cc2)nc(N2CCOC[C@H]2C)n1`, the Ratio IC50 stood at 3010.

On to `C[C@@H]1COCCN1c1nc(-c2ccc(NC(=O)Nc3ccc(N4CCN(C)CC4)nc3)cc2)nc(N2CCOC[C@H]2C)n1`, for which the Ratio IC50 amounted to 489.

As to `C[C@@H]1COCCN1c1nc(-c2ccc(NC(=O)Nc3ccc(N4CCC(N(C)C)CC4)cc3)cc2)nc(C2CCOCC2)n1`, the Ratio IC50 came to 237.

With `C[C@@H]1COCCN1c1nc(-c2ccc(NC(=O)Nc3ccc(C(=O)N4CCN(C)CC4)cc3)cc2)nc(N2CCOC[C@H]2C)n1`, the Ratio IC50 was determined as 45.

Turning to `C[C@@H]1COCCN1c1nc(-c2ccc(NC(=O)Nc3cccnc3)cc2)nc(N2C[C@@H]3C[C@H]2CO3)n1`, the Ratio IC50 came to 525.

Regarding `C[C@@H]1COCCN1c1nc(-c2ccc(NC(=O)Nc3ccc(N4CCNCC4)cc3)cc2)nc(C2CCOCC2)n1`, the Ratio IC50 is 340.

Regarding `C[C@@H]1COCCN1c1nc(-c2ccc(NC(=O)Nc3ccc(N4CCN(C)CC4)cc3)cc2)nc(N2CCOC[C@H]2C)n1`, the Ratio IC50 was 300.

With `C[C@@H]1COCCN1c1nc(-c2ccc(NC(=O)Nc3ccc(N4CCN(C)CC4)cc3)cc2)nc(C2CCOCC2)n1`, the Ratio IC50 amounted to 572.

In the case of `C[C@@H]1COCCN1c1nc(-c2ccc(NC(=O)Nc3ccc(CN(C)C)cc3)cc2)nc(N2CCOC[C@H]2C)n1`, the Ratio IC50 came out at 204.

The values above are taken from ChEMBL document CHEMBL1156956, “Triazines incorporating (R)-3-methylmorpholine are potent inhibitors of the mammalian target of rapamycin (mTOR) with selectivity over PI3Kalpha” (Bioorg Med Chem Lett, 2010).
